Measured values published in patent publication US9040563B2, “Dual inhibitors of farnesyltransferase and geranylgeranyltransferase I” (H. Lee Moffitt Cancer Center and Research Institute, Inc., priority 2010, dated 2015).

Target: hFTase (Homo sapiens, UniProt P49354+P49356)
Assay: In vitro hFTase inhibition: incorporation of [3H]FPP into recombinant H-Ras-CVLS
Assay type: biochemical
Details: GGTase-I IC50 / hFTase IC50

Compound: Cc1ccc(CN(CCN(Cc2cncn2C)c2ccc(C#N)cc2)S(=O)(=O)c2cn(C)cn2)cc1 [1aq]
- selectivity (ratio of GGTase-I to FTase IC50s): 1.6
